Test results published in article PMC6042076 (Proceedings of the National Academy of Sciences of the …, 2018).
Read-outs that look alike come from different tables or passages of the source.

Amino acid sequences for entries named in this document (tags omitted). A change or cut given only in a name is not applied to a line headed by its entry.
UniProt Q9KVG8: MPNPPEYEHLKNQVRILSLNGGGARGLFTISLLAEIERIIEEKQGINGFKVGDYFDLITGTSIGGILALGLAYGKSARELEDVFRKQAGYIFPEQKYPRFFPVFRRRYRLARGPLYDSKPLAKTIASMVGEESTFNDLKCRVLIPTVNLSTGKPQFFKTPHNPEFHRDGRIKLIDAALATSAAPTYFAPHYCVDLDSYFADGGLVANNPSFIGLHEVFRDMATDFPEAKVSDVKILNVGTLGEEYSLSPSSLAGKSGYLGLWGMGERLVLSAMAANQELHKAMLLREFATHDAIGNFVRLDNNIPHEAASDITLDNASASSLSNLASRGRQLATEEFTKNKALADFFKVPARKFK

What was measured:
[1] = biological target: T1, CapV (VC0178; cGAMP-activated phospholipase in Vibrio) (Vibrio cholerae, UniProt Q9KVG8); details: 1.6 µM CapV
[2] = biological target: T1, CapV (VC0178; cGAMP-activated phospholipase in Vibrio); assay: biochemical

Q: For `Nc1ncnc2c1ncn2[C@@H]1O[C@@H]2COP(=O)(O)O[C@H]3[C@@H](O)[C@H](n4cnc5c(N)ncnc54)O[C@@H]3COP(=O)(O)O[C@H]2[C@H]1O` [c-di-AMP], which “lowest concentration giving FP-Rh labeling” value ([1]; weak activator) is on record?
A: Its value is 50 µM.

Q: `Nc1nc2c(ncn2[C@@H]2O[C@@H]3COP(=O)(O)O[C@H]4[C@@H](O)[C@H](n5cnc6c(=O)[nH]c(N)nc65)O[C@@H]4COP(=O)(O)O[C@H]3[C@H]2O)c(=O)[nH]1` [c-di-GMP] was tested. Which “lowest concentration giving FP-Rh labeling” value ([1]; weak activator) did it give?
A: Its value is 25 µM.

Q: `Nc1nc2c(ncn2[C@@H]2O[C@@H]3COP(=O)(O)O[C@H]4[C@@H](O)[C@H](n5cnc6c(N)ncnc65)O[C@@H]4COP(=O)(O)O[C@H]3[C@H]2O)c(=O)[nH]1` [cGAMP] was tested. Which Kd [2] did it give?
A: Its Kd is 8.6 ± 1.9 µM.

Q: What about the “lowest concentration giving FP-Rh labeling” value ([1]; activator) of the same compound?
A: Its value is 0.05 µM.
